IL-2 act: IL-2 activation | hit rate 0.065% among 360,000 | activation, % (series mostly up to about 46 µM) | IL-2 activation reporter assay, cell-based qHTS; stimulated with anti-CD3/CD4/CD28 beads; in transgenic mouse T cells; in the data active = activation above about 50%; inconclusive = mostly about 30% to 49%; note: 0% is about no effect
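EGFP and DsRed fluorescence is measured by plate cytometry in unstimulated transgenic mouse T cells exposed to compound for 60 minutes, then stimulated 18 hours at 37 degrees C with anti-CD3/anti-CD4 beads plus anti-CD28.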
miR-21 reporter: miR-21 reporter, rising signal. 340,000 tested, under 10 active. Potency, µM (highest dose often 38.3 µM), for the others: at the highest dose reporter change, positive = more light. HeLa miR-21 FLuc reporter, luciferase, 48 h. AID 2288; active = well fitted rising curve with a large enough effect; inconclusive = small, poorly fitted or top-dose-only effect; inactive = no such curve, though single readings can be large or run the other way;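 further: % of control where 0% means no effect; miR-21 action dims this reporter so a rising signal means less miR-21 action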
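HeLa cells endogenously expressing miR-21, stably carrying CMV-driven firefly luciferase with a downstream miR-21 binding site, 2000 cells/well. Titrations up to approximately 40 uM, 48 hours; luciferase luminescence read.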
Nrf2 ARE act: Nrf2 pathway activation; AID 624171; hit rate 0.31% among 410,000; AREc32 ARE-luciferase reporter (MCF7-derived line), luminescence, 24 h; Potency, µM (titrated, usually from 46.1 µM), for the others: at the top dose activation, most hits filed as activators; note: potency is the fitted concentration of half-maximal effect; % of control where 0% means no effect; nearly all actives have a fitted effect of over 65% in size
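Luciferase luminescence (Steady-Glo, 30 min at room temperature) served as the read-out of ARE activation in AREc32 cells treated with compounds for 24 hr at 37 deg C.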
A549 tox: A549 cytotoxicity, counter-screen for Nrf2 inhibitors | Potency, µM (series often up to 46 µM), for the others: at the highest dose activity change, negative = cytotoxicity, usual class: inhibitors | A549 ARE-Fluc cells, CellTiter-Fluor viability, 18-24 h | AID 504648 | hit rate 0.16% among 390,000; note: potency is the fitted concentration of half-maximal effect; % is set by controls: 0 for no effect and ±100 for the full control effect
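A549 ARE_Fluc cells in 5% FBS OPTI-MEM were exposed to compounds in concentration-response for 18-24 h at 37 deg C. Viability was read by CellTiter-Fluor fluorescence (Ex 405/Em 525) after 30 min, before the luciferase read.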
Nrf2 block: Nrf2 pathway inhibition; AID 504444; hit rate 2.1% among 360,000; A549 ARE-Fluc reporter, luciferase luminescence, 18-24 h; Potency, µM (top dose mostly 46 µM), without a hit: at the top dose activity change, negative = inhibition, hits mostly inhibitors; note: potency is the fitted concentration of half-maximal effect; % is set by controls: 0 for no effect and ±100 for the full control effect; nearly all actives have a fitted effect of over 60% in size
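Quantitative HTS in A549 cells stably bearing an antioxidant response element-firefly luciferase construct. Inhibition of Nrf2-driven transcription was scored by luminescence after 18-24 h of compound exposure at 37 °C.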
ClpP mod: qHTS Assay for Activators of ClpP. AID 651965, 2013. ATP-dependent Clp protease proteolytic subunit (Bacillus subtilis (strain 168)), P80244. Potency, µM (titrated, usually from 57.5 µM), inactives show at the top dose activity change, negative = active. hit rate 1.9% among 340,000. purified B. subtilis ClpP, FRET peptide cleavage, 20 min; active = well fitted falling curve with a large enough effect; inconclusive = small, poorly fitted or top-dose-only effect; inactive = no such curve, though single readings can be large or run the other way; note: potency is the fitted concentration of half-maximal effect; the source files actives as falling curves though it sought activators and does not explain the sign; nearly all actives have a fitted effect of over 65% in size
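Buffer: 100 mM Tris/HCl pH8, 100 mM KCl, 0.05% low protease BSA, 2.5% glycerol, 0.01% Tween-20. ClpP 10 microg/mL final; 20 min RT; delta FRET normalized to ADEP and DMSO controls.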
An asterisk follows results filed as active; ? = inconclusive; nt = no result. Rows were chosen to be rich in hits. Some 3.7% of all compounds tested hit in one or more screens of this group. Unless noted, calls come from the whole dose curve; as a rule, active = well fitted curve in the direction sought with a large enough effect; inconclusive = small, poorly fitted or top-dose-only effect, or another doubt; inactive = no such curve, though single readings can be large; an effect the other way counts as inactive or inconclusive.

The chains behind the UniProt entries cited, without tags or fusion partners.
ATP-dependent Clp protease proteolytic subunit (Bacillus subtilis (strain 168)), P80244, UniProt P80244, whole entry, looked up: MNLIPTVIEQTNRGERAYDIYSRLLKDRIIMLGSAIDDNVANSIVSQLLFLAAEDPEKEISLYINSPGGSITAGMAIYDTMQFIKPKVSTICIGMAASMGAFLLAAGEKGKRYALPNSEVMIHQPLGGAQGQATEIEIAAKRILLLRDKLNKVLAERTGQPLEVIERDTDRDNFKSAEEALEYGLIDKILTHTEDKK

SMILES	IL-2 act	miR-21 reporter	Nrf2 ARE act	A549 tox	Nrf2 block	ClpP mod
CC(C)C[C@H](NC(=O)OC(C)(C)C)C(=O)N/N=C/c1ccc2nccnc2c1	0	-14%	0%	10%	-24%	-6%
CC(C)C[C@H](NC(=O)OC(C)(C)C)C(=O)N/N=C/C1=Cc2ccccc2OC1C (stereo partly drawn)	-3	26%	3%	?	21µM*	28µM*
CN(NC(=O)c1ccc(Cl)cc1)c1nc(-c2ccccc2)nnc1C(F)(F)F	0	9%	0%	-10%	23µM*	0%
CC(C)CC(=O)NN(C)c1nc(-c2ccccc2)nnc1C(F)(F)F	4	-2%	0%	3%	-19%	0%
CCC(C)NC(=S)Nc1ccc(C(=O)OC)cc1 (stereo not drawn)	-4	-8%	0%	-19%	18µM*	nt
Cc1ccccc1NC(=O)CN1C(=O)NC(C)(c2ccc3c(c2)OCO3)C1=O (stereo not drawn)	1	-2%	0%	-15%	-22%	16µM*
COc1ccc(NC(=O)C(NS(=O)(=O)c2cccc3nsnc23)C(C)C)cc1OC (stereo not drawn)	nt	0%	0%	-1%	9%	-3%
COc1ccc(Cl)cc1NC(=O)CSc1nc2c(oc3ccccc32)c(=O)n1Cc1ccco1	nt	2%	1%	2%	10%	-2%
CC(C)S(=O)(=O)c1oc(-c2cccs2)nc1S(=O)(=O)c1ccc(F)cc1	nt	?	-6%	?	18µM*	4%
CC(C)S(=O)(=O)c1oc(-c2ccc(F)cc2)nc1S(=O)(=O)c1ccccc1	nt	?	?	?	?	-12%
O=C(CSc1ccc(-c2ccco2)nn1)N1CCCCC1	1	-17%	?	4%	?	0%
O=C(CSc1ccc(-c2ccco2)nn1)N1CCCC1	-1	-4%	10µM*	-8%	14%	nt
COc1ccc(-c2csc(N3CCN(c4cc(C)nc5ccccc45)CC3)n2)cc1OC	1	?	-1%	21µM*	13µM*	-8%
COc1cccc(Cl)c1NC(=O)N1CCN(c2cc(C)nc3ccccc23)CC1	0	-2%	4%	?	23µM*	0%
COc1cc(-c2csc(N3CCOCC3)n2)cc(OC)c1OC	2	-2%	3%	-4%	-12%	0%
COc1cccc(Cl)c1NC(=O)N1CCN(c2ccnc3cc(Cl)ccc23)CC1	1	5%	5%	-25%	23µM*	?
Cc1cc(C)cc(NC(=O)c2c(C)oc3nc(C)nc(N4CCCC4)c23)c1	nt	-4%	-1%	-1%	19%	0%
CCOC(=O)c1c(C)[nH]c(CCC(=O)NCc2ccc(N(C)C)cc2)c1C	nt	20%	0%	-7%	nt	-7%
CCOC(=O)c1ccc(NC(=O)Cn2nc3c4ccccc4n(Cc4cccc(F)c4)cc-3c2=O)cc1	nt	-19%	2%	1%	?	3%
CC(=O)N1CCc2cc(CNS(=O)(=O)c3ccc(Cl)s3)ccc21	nt	-38%	5%	8%	nt	0%
COc1cccc(CNC(=O)c2nnc(Cc3ccc(Cl)cc3)o2)c1	nt	-8%	0%	-4%	8%	1%
Cc1ccc(CNC(=O)c2nn(C)c3c2CS(=O)(=O)c2ccccc2-3)cc1	-1	-2%	-1%	2%	19%	-9%
Cn1nc(C(=O)NCc2ccc(F)cc2)c2c1-c1ccccc1S(=O)(=O)C2	2	5%	-4%	-10%	10µM*	-6%
O=C(COC(=O)Cn1cc(C(F)(F)F)ccc1=O)Nc1ccc(Br)cc1F	0	nt	0%	1%	3%	25µM*
c1ccc2c(c1)sc[n+]2CCC1CCCCC1	nt	nt	nt	nt	nt	-4%

Single records, as listed above. Screens in order: IL-2 act	miR-21 reporter	Nrf2 ARE act	A549 tox	Nrf2 block	ClpP mod
`COc1cccc(Cl)c1NC(=O)N1CCN(c2ccnc3cc(Cl)ccc23)CC1` in the list: 1	5%	5%	-25%	23µM*	?
`COc1cc(-c2csc(N3CCOCC3)n2)cc(OC)c1OC` in the list: 2	-2%	3%	-4%	-12%	0%

Additional entries follow:
SMILES	IL-2 act	miR-21 reporter	Nrf2 ARE act	A549 tox	Nrf2 block	ClpP mod
Cc1ccc(OCCN2CCN(C(=O)CCC(=O)Nc3nnc(C)s3)CC2)cc1	-1	0%	0%	1%	-1%	-1%
Cc1ccc(OCCN2CCN(C(=O)CCC(=O)Nc3nnc(C(C)C)s3)CC2)cc1	0	17%	4%	?	12µM*	1%
Cc1c(-c2nsc(NC(=O)c3ccc(Cl)cc3)n2)nnn1-c1ccc(C(C)C)cc1	nt	-13%	1%	-13%	?	25µM*
COC(=O)c1ccc(-n2nnc(-c3nsc(NC(=O)c4ccc(Cl)cc4)n3)c2C)cc1	nt	-15%	-1%	-4%	5%	-3%
Cc1nn2c(=O)cc(COC(=O)c3cccc(NC(=O)COc4ccccc4C)c3)nc2s1	nt	-33%	-3%	-3%	nt	4%
CCOC(=O)c1ccc(N2C(=O)c3[nH]nc(-c4ccc(C)cc4)c3C2c2cccs2)cc1 (stereo not drawn)	nt	?	0%	?	23µM*	10%
CCOC(=O)c1ccc(N2C(=O)c3[nH]nc(-c4ccc(C)cc4)c3C2c2ccc(O)c(OCC)c2)cc1 (stereo not drawn)	nt	29%	13%	-10%	21µM*	-5%
Cc1ccc(NS(=O)(=O)c2cccc(C(=O)O)c2)cc1C	nt	nt	nt	4%	?	nt
Cn1cc([N+](=O)[O-])c(C(=O)Nc2ccc3nc(-c4ccccc4)[nH]c3c2)n1	1	-72%	25µM*	-1%	?	?
O=C(c1ccccc1)c1ccc2nc(-c3ccc(NC(=O)c4ccccc4F)cc3)[nH]c2c1	0	-15%	0%	?	10µM*	?
Cn1cc([N+](=O)[O-])c(C(=O)Nc2ccc(-c3nc4ccccc4[nH]3)cc2)n1	-2	-50%	?	0%	28%	1%
COC(=O)C(CCSC)NC(=O)C1CCN(c2ncnc3c2nc2n3CCCCC2)CC1 (stereo not drawn)	nt	0%	-1%	18%	9%	0%
Cn1cc(-c2ccc(Cl)cc2)cc(C#N)c1=O	0	-5%	0%	0%	-18%	nt
N#Cc1cc(-c2cccc(Cl)c2)c[nH]c1=O	0	-3%	0%	-12%	-28%	22µM*
C=CCn1cc(-c2cccc(Cl)c2)cc(C#N)c1=O	3	-4%	1%	-1%	-1%	28µM*
N#Cc1c(-c2cccc(Cl)c2)[nH]c(=S)[nH]c1=O	-2	3%	0%	9%	4%	nt
CCOc1ccc(C(=O)c2cn(CC(=O)Nc3ccc(F)c(F)c3)c3cc4c(cc3c2=O)OCCO4)cc1	nt	21%	-1%	-20%	?	-3%
C=CCn1c(-c2ccc(OC)cc2)nc2nc3ccccc3nc21	-1	-27%	0%	-5%	18%	25µM*
N#CN1CCC(NC(=O)c2cccc(F)c2)CC1	nt	nt	nt	-2%	4%	nt

Given in markdown: part of the list above
| structure | IL-2 act | miR-21 reporter | Nrf2 ARE act | A549 tox | Nrf2 block | ClpP mod |
| --- | --- | --- | --- | --- | --- | --- |
| CCOC(=O)c1ccc(N2C(=O)c3[nH]nc(-c4ccc(C)cc4)c3C2c2ccc(O)c(OCC)c2)cc1 (stereo not drawn) | nt | 29% | 13% | -10% | 21µM* | -5% |
| Cc1c(-c2nsc(NC(=O)c3ccc(Cl)cc3)n2)nnn1-c1ccc(C(C)C)cc1 | nt | -13% | 1% | -13% | ? | 25µM* |
| N#Cc1c(-c2cccc(Cl)c2)[nH]c(=S)[nH]c1=O | -2 | 3% | 0% | 9% | 4% | nt |
| CCOc1ccc(C(=O)c2cn(CC(=O)Nc3ccc(F)c(F)c3)c3cc4c(cc3c2=O)OCCO4)cc1 | nt | 21% | -1% | -20% | ? | -3% |

Bioassay records deposited in PubChem by National Center for Advancing Translational Sciences (NCATS).
